ChEMBL document CHEMBL2216752, “Carnitine palmitoyltransferase (CPT) modulators: a medicinal chemistry perspective on 35 years of research” (J Med Chem, 2011)

Test: Inhibition of carnitine palmitoyltransferase

Row | SMILES | IC50
1 | CCCCCCCCCCCCCCCC[C@H]1C[N+](C)(C)CCO[P@@](C)(=O)O1 | > 100 µM
2 | CCCCCCCCCCCCCCCC[C@H]1C[N+](C)(C)CCO[P@](C)(=O)O1 | > 100 µM
